Test results from article PMC6627609 (2019).

The chains behind the UniProt entries cited, without tags or fusion partners. Where a name states a change or a piece, a line headed by the entry shows the natural chain unless it says otherwise.
UniProt Q8ZKQ6: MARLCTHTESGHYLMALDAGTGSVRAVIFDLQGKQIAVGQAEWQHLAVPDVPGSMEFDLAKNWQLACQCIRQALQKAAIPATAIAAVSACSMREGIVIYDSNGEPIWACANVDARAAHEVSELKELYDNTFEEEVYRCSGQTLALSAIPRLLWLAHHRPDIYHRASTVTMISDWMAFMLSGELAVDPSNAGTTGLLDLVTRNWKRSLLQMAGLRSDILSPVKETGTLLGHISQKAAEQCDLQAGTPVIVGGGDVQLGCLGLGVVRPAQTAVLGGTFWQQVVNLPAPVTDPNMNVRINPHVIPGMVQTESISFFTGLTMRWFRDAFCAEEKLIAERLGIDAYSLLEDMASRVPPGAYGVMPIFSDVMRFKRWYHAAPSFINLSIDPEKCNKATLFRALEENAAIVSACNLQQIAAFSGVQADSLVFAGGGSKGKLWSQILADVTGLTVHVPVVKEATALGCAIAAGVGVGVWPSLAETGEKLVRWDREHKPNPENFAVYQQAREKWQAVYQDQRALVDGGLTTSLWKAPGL

Molecular target: LsrK (Salmonella typhimurium, UniProt Q8ZKQ6)
Details: 50 µM

| Compound | Inhibition (%) |
| --- | --- |
| THIMEROSAL | 141 |
| O=S(=O)([O-])c1cc(N=C=S)ccc1C=Cc1ccc(N=C=S)cc1S(=O)(=O)[O-].[Na+].[Na+] [4.4'-DIISOTHIOCYANOSTILBENE-2.2'-SUFONIC ACID SODIUM SALT] | 141 |
